The entries are a selection whose mix differs from that of the whole data set. Some of these compounds have results that are not shown, active ones among them. Activity calls are given as the source filed them. Cut-off read from the data, not from the text of the source: active = activation above about 18%; inactive = the rest.

Amino acid sequences for entries named in this document (tags omitted).
UniProt P35372, whole entry, looked up: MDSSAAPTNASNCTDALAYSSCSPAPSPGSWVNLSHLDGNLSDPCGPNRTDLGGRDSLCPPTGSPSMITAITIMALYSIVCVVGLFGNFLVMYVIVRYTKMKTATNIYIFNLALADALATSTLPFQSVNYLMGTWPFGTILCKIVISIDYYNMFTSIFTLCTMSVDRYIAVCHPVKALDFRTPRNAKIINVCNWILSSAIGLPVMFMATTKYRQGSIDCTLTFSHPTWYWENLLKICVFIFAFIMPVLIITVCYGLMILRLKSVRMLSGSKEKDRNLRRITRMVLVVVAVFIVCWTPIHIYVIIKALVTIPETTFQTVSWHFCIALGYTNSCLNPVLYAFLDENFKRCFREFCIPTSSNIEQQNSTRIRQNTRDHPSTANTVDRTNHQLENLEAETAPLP
UniProt P41143, whole entry, looked up: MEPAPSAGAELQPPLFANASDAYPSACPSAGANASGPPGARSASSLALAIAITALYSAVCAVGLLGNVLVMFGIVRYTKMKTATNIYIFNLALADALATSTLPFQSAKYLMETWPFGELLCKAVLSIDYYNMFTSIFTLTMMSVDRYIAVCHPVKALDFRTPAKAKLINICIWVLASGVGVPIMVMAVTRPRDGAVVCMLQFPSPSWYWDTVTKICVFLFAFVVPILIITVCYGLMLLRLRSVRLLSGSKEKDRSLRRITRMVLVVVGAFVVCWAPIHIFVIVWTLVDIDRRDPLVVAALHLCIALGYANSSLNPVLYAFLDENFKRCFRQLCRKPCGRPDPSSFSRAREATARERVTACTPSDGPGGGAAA

In the test the target is Mu-type opioid receptor (Homo sapiens) + Delta-type opioid receptor (Homo sapiens) (UniProt P35372+P41143). In words: OPRM1-OPRD1 heterodimer formation agonism – cell-based, luminescence, confirmation (AID 504904).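 Note: 0% = vehicle-treated cells and 100% = reference agonist.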 The following applies: cells, MOR-DOR heterodimerization, luminescence complementation; at 9.3 µM; active compounds read high.

`CN(C)c1ccc(C(=O)NCC2(N(C)C)CCCCC2)cc1`: the activation is inactive: -3.1%.

The values are drawn from PubChem BioAssay AID504904 (The Scripps Research Institute Molecular Screening Center, 2011).
